{"source": "patent US9387206B2", "about": "“Therapeutic approaches for treating Alzheimer's disease” (PHARNEXT, priority 2009, dated 2016)", "tested_on": "rat primary cortical neurons", "assay": "Neurite outgrowth in beta-amyloid (Aβ25-35) intoxicated rat primary cortical neuron culture", "format": "cell-based", "conditions": "Aβ25-35 20 μM, 2 days; drug added 1 hour before"}
{"smiles": "[H]/N=C(/N)N/C(=N/[H])NCCc1ccccc1", "note": "[Phenformin]", "values": [{"measurement": "Prevention of Aβ25-35 intoxication, neurite outgrowth (neurite length)", "result": "significantly prevented"}]}
